Here are results for 1 compound from publication PMC3812312 (Journal of medicinal chemistry, 2013).

In the series the test system is VERO cells. In words: Cell viability assay. The series is classed as cell-based. As to conditions: VERO versus MCF-7.

With `O=C(CCCCCCC(=O)Nc1ccccc1)NO` [SAHA, suberoylanilide hydroxamic acid, reference compound], the “in vitro therapeutic index (IVTI)” value is “smallest in vitro therapeutic index”.
